Experimental data from patent US11193164B2, “Methods of diagnosing and treating cancer targeting extrachromosomal DNA” (The Regents of the University of California, priority 2017, dated 2021).

Test system: GBM39 cells
Assay: Next generation sequencing fine structure analysis of EGFRvIII amplification in GBM39 cultures
Format: cell-based, human
Settings: Erlotinib removed (biological replicates in rows 5 and 6), FIG. 13B

**Q.** `C#Cc1cccc(Nc2ncnc3cc(OCCOC)c(OCCOC)cc23)c1` [Erlotinib] was tested. Which “Average copy numbers of amplified intervals as determined from sequencing analysis” value did it give?
**A.** Its value is 100-105.
